Experiment: Aqueous solubility (UPLC or visual) and final pH

For “(R)-8-chloro-1-methyl-2,3,4,5-tetrahydro-1H-3-benzazepine hemisulfate salt hydrate”, the “Solubility in water per USP categorization” value was “very soluble (<1 mL water needed to dissolve 1 g)”.

From US20140148442A1, “FAST-DISSOLVE DOSAGE FORMS OF 5-HT2C AGONISTS” (Arena Pharmaceuticals, Inc., priority 2010, published 2014)
